Literature values as cited in patent publication US12102684B2, “Methods of making and using polyphenols complexed with a protein, peptide, amino acid, polysaccharide, disaccharide, or monosaccharide” (priority 2016, dated 2024).

Substance: epigallocatechin-3-gallate [EGCG]
- ethanol solubility (ethanol): 20 mg/mL
- water solubility (water): 5 mg/mL
